Assay results taken from patent US12247045B2, “MAP4K4 inhibitors” (Imperial College Innovations Limited, priority 2018, dated 2025).

Sequences of proteins named here, by UniProt entry; tags and fusion partners are left off. Residues count along the entry.
UniProt O95819, 25-289 limits assumed: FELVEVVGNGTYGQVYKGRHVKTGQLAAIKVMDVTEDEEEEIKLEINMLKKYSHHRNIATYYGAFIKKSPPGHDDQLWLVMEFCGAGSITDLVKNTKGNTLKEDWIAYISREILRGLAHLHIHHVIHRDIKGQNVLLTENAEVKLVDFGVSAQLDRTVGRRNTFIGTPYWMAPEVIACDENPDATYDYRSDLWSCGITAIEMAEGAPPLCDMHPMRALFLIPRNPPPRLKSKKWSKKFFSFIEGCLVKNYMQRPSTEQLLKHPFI

Molecular target: human MAP4K4 kinase domain (Homo sapiens, UniProt O95819)
Assay: MAP4K4 kinase activity, CisBio HTRF Transcreener ADP assay
Conditions: read-out: MAP4K4; IC50 category; ATP at Km (10 μM), 0.5 nM kinase domain, 2 h
Text: Compounds of the present invention were screened for their inhibitory activity against MAP4K4, versus selected off-target hits found with early members of this chemical series. MAP4K4 kinase activity was monitored using the CisBio HTRF Transcreener ADP assay, a competitive immunoassay with a reproducible Z′>0.6. In the detection step, endogenous ADP and d2-labeled ADP compete for binding an anti-ADP monoclonal antibody labelled with Eu^3+ cryptate. A ratiometric fluorescent read-out is used at 665 and 620 nm. Reactions were performed in the presence of 1% DMSO with ATP added at Km (10 μM), 0.5 nM human MAP4K4 kinase domain (Invitrogen), 1 μM biotin-myelin basic protein as substrate (Invitrogen), and extension of reaction time to 2 h. Assays were run in Greiner low volume plates with a final reaction volume of 10 μl. The MAP4K4 inhibition data are provided in Table 41 below for selected compounds of the present invention. The data has been categorised based on the IC50 value of the compound as “A”, “B” or “C”. IC50: A≤100 nM; 100 nM<B≤1 μM; 1 μM<C; nd=not determined.

IC50 [nM] | SMILES
< 100 | COCCOc1ccc(-c2cn(-c3ccc(N)nc3)c3nc[nH]c(=O)c23)cc1
100 to 1000 | CC(C)(O)CCOc1ccc(-c2cn(-c3cccnc3)c3cc[nH]c(=O)c23)cc1
100 to 1000 | CC(C)(O)COc1ccc(-c2cn(-c3ccc[n+]([O-])c3)c3nc[nH]c(=O)c23)cc1
